For the assay, the target named is T1, human serum albumin (HSA) (Homo sapiens, UniProt P02768).
T1 construct: gene ALB; mature serum albumin, 585 residues, single polypeptide
As to the kind of experiment: intrinsic fluorescence quenching titration, excitation […] nm, Hill / double-log plot. Format: binding. To be noted: no electromagnetic field, 50 mM potassium phosphate pH 7.4, 298 K, HSA 4.52 × 10^-6 M, header printed as Ka × 10^-6/M^-1.

Sequences of proteins named here, by UniProt entry; tags and fusion partners are left off. Residues count along the entry.
UniProt P02768, 25-609: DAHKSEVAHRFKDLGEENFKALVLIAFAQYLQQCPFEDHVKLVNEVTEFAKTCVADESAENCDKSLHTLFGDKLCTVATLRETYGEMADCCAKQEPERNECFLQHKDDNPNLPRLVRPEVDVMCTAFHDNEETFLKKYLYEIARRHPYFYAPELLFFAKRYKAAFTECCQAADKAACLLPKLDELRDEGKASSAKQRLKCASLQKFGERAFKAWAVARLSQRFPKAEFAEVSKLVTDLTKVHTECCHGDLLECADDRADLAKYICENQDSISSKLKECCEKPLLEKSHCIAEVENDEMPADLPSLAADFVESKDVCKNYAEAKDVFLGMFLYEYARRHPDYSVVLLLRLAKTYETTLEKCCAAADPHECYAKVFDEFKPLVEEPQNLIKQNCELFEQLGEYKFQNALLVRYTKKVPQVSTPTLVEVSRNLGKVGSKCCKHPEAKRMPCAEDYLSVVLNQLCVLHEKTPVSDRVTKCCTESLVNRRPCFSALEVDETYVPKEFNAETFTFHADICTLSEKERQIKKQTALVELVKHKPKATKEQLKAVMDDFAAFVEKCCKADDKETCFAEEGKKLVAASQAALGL

The structures appear in SMILES notation.

As to `CCn1cc(C(=O)O)c(=O)c2cc(F)c(N3CCNCC3)cc21` [norfloxacin, 1-ethyl-6-fluoro-1,4-dihydro-4-oxo-7-(1-piperazinyl)-3-quinoline carboxylic acid], the “Ka × 10^-6/M^-1 λex = 280 nm” value is given as 22.06 × 10^6 M^-1.
